## Yeast mating assay B: variants of the scFv Ab-14

From the AlphaSeq antibody data of Li et al. 2023 (doi:10.1038/s41467-023-39022-2), copy in the FLAb collection.

The target is the same throughout: PDVDLGDISGINAS, from the HR2 region of SARS-CoV-2 spike.

Ab-14 is the parent antibody, in scFv form: VH, then the linker GGGGSGGGGSGGGGS, then VL. The heavy chain is unchanged in all variants.
VH: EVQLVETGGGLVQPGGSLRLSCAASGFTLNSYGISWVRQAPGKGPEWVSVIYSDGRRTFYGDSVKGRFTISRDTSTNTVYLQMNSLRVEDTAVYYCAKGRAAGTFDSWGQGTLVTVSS
VL: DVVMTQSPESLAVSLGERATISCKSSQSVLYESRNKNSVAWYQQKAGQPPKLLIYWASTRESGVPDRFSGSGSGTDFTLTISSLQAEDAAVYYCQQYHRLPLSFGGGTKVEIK

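These sequences belong to a second round, designed from the earlier measurements on random variants of the parent. Group labels follow the data file (Ctrl: baseline library sampled from a position-specific scoring matrix, with some repeated check sequences; En: ensemble of fine-tuned language models; GP: Gaussian process model; HC: hill climbing; Gen: genetic algorithm; Gibbs: Gibbs sampling; a sequence that several methods proposed may carry one label only). Affinity was read by AlphaSeq, a pooled yeast mating assay with surface-displayed partners. The frequency of each diploid, read from paired DNA barcodes, reflects how well the two displayed proteins bind. Read counts were normalised to the haploid input and turned into Kd by a linear fit to BCL2-family pairs of known affinity, for each replicate. The assay was run in six technical replicates.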

Each variant is given by its three light chain CDRs, as the data file delimits them; those of the parent are KSSQSVLYESRNKNSVA, WASTRES, QQYHRLPLS. Values are log10 of the apparent Kd in nM; lower means stronger binding. A mean of the replicates is given; it leaves out those without a signal. An entry "nd" has no value in the source: the pair was not observed among the diploids in any replicate. This suggests poor binding but is not conclusive. The range of this assay differs from that of the first round, and the authors advise against merging the two.

| CDR-L1 | CDR-L2 | CDR-L3 | group | mean, log10 nM | seen in |
|---|---|---|---|---|---|
| MMSQVTGLGQRHRNNVA | QTSTREP | QQYDRLPLV | En_Gen | 1.14 | 6/6 |
| KIGGVTNGVSRSKNSVA | EQSTRED | QQYNRLPLS | En_HC | 0.61 | 6/6 |
| KFSQSVDYETRQKNSVA | NASTRMS | QQYHRLPLS | GP_Gibbs | -0.13 | 6/6 |
| HISQSVGMTSFQKNSVA | ENSTRED | QQYDRLPLS | En_HC | 2.59 | 6/6 |
| ILSQMMLTAGNKHSSVA | QANNRYD | QQYHRLPLS | En_HC | nd | 0/6 |
| KFSQSWLYESRNFQSVA | GASTRES | QQYHRLPLS | GP_HC | 0.21 | 6/6 |
| KQSQSYLYESVNKNSVA | DASTRES | QQYHRLPLS | GP_HC | 0.89 | 5/6 |
| KISCSVYYGDRNKMSVA | DASQRES | QQYHRLPLS | GP_Gibbs | 0.56 | 6/6 |
| TISQVMNTLTRHGNNVA | DLQERED | QQYFRLPLS | En_Gen | 0.30 | 6/6 |
| KLDQSDLMESRNWNAVA | SASTREI | QQYHRLPLS | GP_Gibbs | 0.64 | 6/6 |
| KLSESELYESRNKNSVA | NASTRES | QQYHRLPLS | GP_Gen | 0.20 | 6/6 |
| KSSQSVLYLSRNKNSVA | WASTRET | QQLHRLPLS | Ctrl | 2.06 | 2/6 |
| KLTHLTFVLDRQKASVA | DSERKAE | QQYNRLPLT | En_Gibbs | 0.47 | 6/6 |
| KLMCSQEYESRNTNSVA | GASTRES | QQYHRLPLS | GP_Gibbs | -0.06 | 6/6 |
| KLTAAQNDYGQNYSAIA | EEVNSLQ | QQYHHLPLS | En_Gibbs | nd | 0/6 |
| KLVESELYESRQSNSVA | NASYREE | QQYHRLPLS | GP_Gibbs | 0.21 | 6/6 |
| KQQFSGGGGSRNKNSVA | KASTRES | QQYHRLPLS | GP_Gibbs | 1.76 | 6/6 |
| KSSQSVLMESMNKNSVA | HASQRIW | QQYHRLPLS | GP_Gibbs | 0.95 | 6/6 |
| KSSQSVLYESRNKNSVA | WASTAES | QQYHRLPLS | Ctrl | 1.92 | 1/6 |
| MISDLMLYGARNKNPIA | NASTREY | QQYHRLPLE | En_HC | 0.78 | 6/6 |
| KLEDSNRWHLRGTNAVA | QASTRAA | QQYQRLPFL | En_Gibbs | 1.01 | 6/6 |
| MISQLYNMGSFAINSVA | QASLRND | QQYDRLPLM | En_Gen | 0.38 | 6/6 |
| KLSQSMGYESRNKNSVA | NASTRMS | QQYHRLPLS | GP_Gen | -0.05 | 6/6 |
| KMSQSVMYESRNKNSVA | WADTRED | QQYHRLPLS | Ctrl | 0.75 | 6/6 |
| VMFMGLYWNNDEHYAIA | DVTMREK | QQYHRLPLM | En_Gibbs | nd | 0/6 |
| KIGATLNMLEHKENNVA | DLVERGN | QQYFRLPLS | En_Gen | 0.15 | 6/6 |
| FFSLIQDSYGEANNSIA | ERNTKAH | QQYSRLPLV | En_Gibbs | 1.72 | 4/6 |
| ASSQSWLYESRNKNSVA | GASTRES | QQYHRLPLS | GP_HC | -0.63 | 6/6 |
| KLSQSVLYESNNKNSVA | NASTRED | YQYHRLPLS | Ctrl | 1.90 | 5/6 |
| GLSQSVEQLSRNKNSVA | HASQREV | QQYHRLPLS | GP_Gibbs | 0.20 | 6/6 |
| KSSFSVLFQSRNKNSVA | DASTRES | QQYHRLPLS | GP_HC | 0.38 | 6/6 |
| KISQMVRVGSTKGNSIA | EEATRAD | QQYHRLPLS | En_Gen | 0.73 | 6/6 |
| KSSQSVLKESQNKNSVA | HASTRES | QQYHRLPLS | Ctrl | 0.68 | 6/6 |

The remaining entries, values ahead:

| mean, log10 nM | seen in | CDR-L1 | CDR-L2 | CDR-L3 | group |
|---|---|---|---|---|---|
| 1.11 | 6/6 | KSSQSVLYESRNKNSVA | NASLRES | QQCHRLPLS | Ctrl |
| 0.59 | 6/6 | SLDSDVGYDTHNDKNIA | AETRVDR | QQYAHLPLS | En_Gibbs |
| 1.85 | 6/6 | KVDMYELPMEFNRSAVA | QAEVRAP | QQYWRLPLE | En_Gibbs |
| -0.34 | 6/6 | KLEMSQLYESRNKNSVA | NASQRES | QQYHRLPLS | GP_Gen |
| 1.64 | 2/6 | KSSISVLYESRNKNSVA | WSSTRES | QQYHRLPLS | Ctrl |
| -0.28 | 6/6 | KLSQSTLYESRNKNNVA | NASTRES | QQYHRLPLS | GP_Gen |
| 1.53 | 6/6 | KISQPVIYESRNRNSVA | WASTRES | QQYHRLPLS | Ctrl |
| 0.09 | 6/6 | KVEQSNLYESRNKNSVA | NASTRES | QQYHRLPLS | GP_Gen |
| 0.11 | 6/6 | QLEFERGDAYKQGNAIA | GGTESLH | QQYAMLPLS | En_Gibbs |
| 0.52 | 6/6 | KSSDLVLYESRNKNSVA | QASTRES | QQYHRLPLS | Ctrl |
| 1.12 | 6/6 | SMMFDTSDNYHERQNVA | DGAAIMN | QQYSILPLS | En_Gibbs |
| 0.59 | 6/6 | RIQMGDLEGRTAWNNIA | DGEEIYR | QQYVRLPLY | En_Gibbs |
| 0.19 | 6/6 | KFQQSELYGERNSNSVA | HASLRES | QQYHRLPLS | GP_Gibbs |
| 1.25 | 2/6 | KSSQGTLYESRNKNSVA | WASTRES | QQYHRLPLS | Ctrl |
| 0.44 | 6/6 | KLQQSVLYESRNKNSVA | HASTRED | QQYHQLPLS | GP_HC |
| 0.15 | 6/6 | KVSQSVQYESRNKNSVA | EASTRES | QQYHRLPLS | GP_Gen |
| 1.60 | 2/6 | NLVGRVPDNYQERNAIA | DMHCRAG | QQYERLPLA | En_Gibbs |
| 0.63 | 6/6 | KASQSVLYESRNKNGVA | GANTRES | QQLHRLPLS | Ctrl |
| 1.99 | 3/6 | KSSQSTLYESYNKNSVA | WASTRES | QQYHRLPLS | Ctrl |
| nd | 0/6 | KSCQSVLYESRNKNSVA | WASTRES | QQYHRMPLS | Ctrl |
| 0.28 | 6/6 | KSSQSVLYTSRNKNSVA | QASTRES | QQYHRLPLS | Ctrl |
| -0.32 | 6/6 | KLSQSQLYESRNKNSVA | NASLRES | QQYHRLPLS | GP_Gen |
| 0.58 | 6/6 | KLSQSVLYESRMKNSVA | EASTRMS | QQYHRLPLS | GP_Gen |
| -0.05 | 6/6 | NSSGPMMFESRNKNSVA | HASTRED | QQYERLPLS | En_HC |
| 0.60 | 6/6 | KISQAVNYLSRVMNSVA | DNSTRGS | QQYFRLPLS | En_HC |
| 1.47 | 1/6 | KSSQSVLYESRNKNSVA | SASTRSS | QQYHRLKLS | Ctrl |
| -0.06 | 6/6 | KISQSELYESRNKNSVA | NASTRLS | QQYHRLPLS | GP_Gen |
| 0.74 | 6/6 | KSSQSFLYESRNFNSVA | NASTRES | QQYHRLPLS | GP_HC |
| 1.53 | 6/6 | KLSISHQVESINKSNVA | EMVNRES | QQYDRLPLS | En_HC |
| 1.56 | 6/6 | KVSEFMRGLMRRQDSIA | DNETRSN | QQYDRLPLS | En_Gen |
| -0.60 | 6/6 | KLSQSVLYEQRNKNNVA | QASTRES | QQYHRLPLS | GP_Gen |
| 0.07 | 6/6 | KLQQSEPYESRNKNSVA | NASQRES | QQYHRLPLS | GP_Gen |
| 0.42 | 6/6 | KISQVFMTTGKLKNSVA | NAYTRVQ | QQYHRLPLS | En_HC |

The first 4 variants above that were never detected:

| CDR-L1 | CDR-L2 | CDR-L3 | group | mean, log10 nM | seen in |
|---|---|---|---|---|---|
| ILSQMMLTAGNKHSSVA | QANNRYD | QQYHRLPLS | En_HC | nd | 0/6 |
| KLTAAQNDYGQNYSAIA | EEVNSLQ | QQYHHLPLS | En_Gibbs | nd | 0/6 |
| VMFMGLYWNNDEHYAIA | DVTMREK | QQYHRLPLM | En_Gibbs | nd | 0/6 |
| KSCQSVLYESRNKNSVA | WASTRES | QQYHRMPLS | Ctrl | nd | 0/6 |

Background: pairings of all light chain designs with three empty control strains gave a value in 4% of cases (median 2.64, 5th percentile 1.59). Values in that range, when seen in few replicates, are hard to tell from nonspecific mating. Of ten entries with the parent sequence, four were seen in most replicates (averages 0.34 to 2.37), three in one and three in none, so single entries are noisy. In the paper, a design with two or fewer of six values counts as a poor binder.